Reference: US10086000B2, “Tricyclic compounds as inhibitors of mutant IDH enzymes” (Merck Sharp & Dohme Corp., priority 2014, dated 2018)
pIC50: −log10 of the molar value.

Sequences of proteins named here, by UniProt entry; tags and fusion partners are left off.
UniProt O75874, whole entry R132H: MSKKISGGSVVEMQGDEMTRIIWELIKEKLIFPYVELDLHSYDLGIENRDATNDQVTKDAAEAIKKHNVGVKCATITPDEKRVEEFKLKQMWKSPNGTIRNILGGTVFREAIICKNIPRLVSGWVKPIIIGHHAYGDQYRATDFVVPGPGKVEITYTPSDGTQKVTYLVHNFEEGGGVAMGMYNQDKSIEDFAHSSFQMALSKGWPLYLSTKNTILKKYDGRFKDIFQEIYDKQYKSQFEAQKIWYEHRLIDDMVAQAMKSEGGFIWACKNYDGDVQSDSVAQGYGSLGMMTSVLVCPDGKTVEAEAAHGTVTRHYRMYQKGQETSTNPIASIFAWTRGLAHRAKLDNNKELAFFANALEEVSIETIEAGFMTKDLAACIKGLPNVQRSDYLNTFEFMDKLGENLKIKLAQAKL

Biological target: R132H mutant IDH1 enzyme (Homo sapiens (Human), UniProt O75874, R132H)
Test: R132H IDH1 Enzymatic Assay
Format: biochemical
Conditions: R132H mutant IDH1 enzyme 1.5 nM final; luminescence (Kinase-GLO) readout

Structure (SMILES): O=C(N1Cc2cccnc2Nc2ccccc21)[C@]12C[C@H]3C[C@H](C[C@H](C3)C1)C2 [Example 25, 6-[(3s,5s,7s)-tricyclo[3.3.1.1~3,7~]dec-1-ylcarbonyl]-6,11-dihydro-5H-pyrido[2,3-b][1,5]benzodiazepine]
- pIC50: 6.06

Structure (SMILES): O=C([C@H]1CC[C@@H]2OCCC[C@@H]2C1)N1Cc2cccnc2Nc2ccc(N3CCOCC3)cc21 (racemic) [Example 38, 8-morpholin-4-yl-6-[(4aR,6S,8aS)-octahydro-2H-chromen-6-ylcarbonyl]-6,11-dihydro-5H-pyrido[2,3-b][1,5]benzodiazepine]
- pIC50: 6.41

Structure (SMILES): O=C(C1CCc2cccnc2CC1)N1Cc2cccnc2Nc2ccccc21 (single isomer, unassigned) [Example 115, 6-(6,7,8,9-Tetrahydro-5H-cyclohepta[b]pyridin-7-ylcarbonyl)-6,11-dihydro-5H-pyrido[2,3-b][1,5]benzodiazepine]
- pIC50: 6.37

Structure (SMILES): O=C(C1CCCc2ncccc2C1)N1Cc2cccnc2Nc2ccccc21 (single isomer, unassigned) [Example 112, 6-(6,7,8,9-Tetrahydro-5H-cyclohepta[b]pyridin-6-ylcarbonyl)-6,11-dihydro-5H-pyrido[2,3-b][1,5]benzodiazepine]
- pIC50: 4.65

Structure (SMILES): O=C(N1Cc2cccnc2Nc2ccccc21)C12CCCC(C1)C2 [Example 29, 6-(bicyclo[3.1.1]hept-1-ylcarbonyl)-6,11-dihydro-5H-pyrido[2,3-b][1,5]benzodiazepine]
- pIC50: 5.98

Structure (SMILES): CCOc1cncc(-c2ccc3c(c2)N(C(=O)C2CCc4ccccc4CC2)Cc2cccnc2N3)c1 [Example 104, 8-(5-Ethoxypyridin-3-yl)-6-(6,7,8,9-tetrahydro-5H-benzo[7]annulen-7-ylcarbonyl)-6,11-dihydro-5H-pyrido [2,3-b][1,5]benzodiazepine]
- pIC50: 8.30

Structure (SMILES): CC(=O)C12C=CC(C(=O)N3Cc4cccnc4Nc4ccccc43)(CC1)CC2 [Example 27, 1-[4-(5,11-dihydro-6H-pyrido[2,3-b][1,5]benzodiazepin-6-ylcarbonyl)bicyclo[2.2.2]oct-2-en-1-yl]ethanone]
- pIC50: 5.84

Structure (SMILES): O=C([C@H]1COc2ccccc2O1)N1Cc2cccnc2Nc2ccc(N3C[C@@H]4C[C@H]3CO4)cc21 [Example 79, 6-[(2R)-2,3-dihydro-1,4-benzodioxin-2-ylcarbonyl]-8-[(1S,4S)-2-oxa-5-azabicyclo[2.2.1]hept-5-yl]-6,11-dihydro-5H-pyrido[2,3-b][1,5]benzodiazepine]
- pIC50: 7.19

Structure (SMILES): O=C(C1CCc2cccnc2CC1)N1Cc2cccnc2Nc2ccccc21 (single isomer, unassigned) [Example 114, 6-(6,7,8,9-Tetrahydro-5H-cyclohepta[b]pyridin-7-ylcarbonyl)-6,11-dihydro-5H-pyrido[2,3-b][1,5]benzodiazepine]
- pIC50: 6.05

Structure (SMILES): O=C(N1Cc2cccnc2Nc2ccccc21)C12CCC(c3nc(C(F)(F)F)no3)(CC1)CC2 [Example 111, 6-({4-[3-(Trifluoromethyl)-1,2,4-oxadiazol-5-yl]bicyclo[2.2.2]oct-1-yl}carbonyl)-6,11-dihydro-5H-pyrido[2,3-b][1,5]benzodiazepine]
- pIC50: 5.73

Structure (SMILES): COC1CC2(C1)CC(C(=O)N1Cc3cccnc3Nc3ccc(N4CCOCC4)cc31)C2 (stereo not shown) [Example 86, 6-[(6-Methoxyspiro[3.3]hept-2-yl)carbonyl]-8-morpholin-4-yl-6,11-dihydro-5Hpyrido[2,3-b][1,5]benzodiazepine]
- pIC50: 5.72

Structure (SMILES): O=C(N1Cc2cccnc2Nc2ccc(N3CCOCC3)cc21)C12CC3CC(CC(F)(C3)C1)C2 [Example 31, 6-[(3-fluorotricyclo[3.3.1.1~3,7~]dec-1-yl)carbonyl]-8-morpholin-4-yl-6,11-dihydro-5H-pyrido[2,3-b][1,5]benzodiazepine]
- pIC50: 6.65

Structure (SMILES): O=C(N1Cc2cccnc2Nc2ccc(N3CCOCC3)cc21)C12CCC(CC1)C2 [Example 17, 6-(bicyclo[2.2.1]hept-1-ylcarbonyl)-8-morpholin-4-yl-6,11-dihydro-5H-pyrido[2,3-b][1,5]benzodiazepine]
- pIC50: 5.76

Structure (SMILES): CN(C)c1cc(-c2ccc3c(c2)N(C(=O)C2CCc4ccccc4CC2)Cc2cccnc2N3)ccn1 [Example 107, N,N-dimethyl-4-[6-(6,7,8,9-tetrahydro-5H-benzo[7]annulen-7-ylcarbonyl)-6,11-dihydro-5H-pyrido[2,3-b][1,5]benzodiazepin-8-yl]pyridin-2-amine]
- pIC50: 8.30

Structure (SMILES): COc1cccc2c1CC(C(=O)N1Cc3cccnc3Nc3ccc(N4CCOCC4)cc31)CC2 (stereo not shown) [Example 96, 6-[(8-methoxy-1,2,3,4-tetrahydronaphthalen-2-yl)carbonyl]-8-morpholin-4-yl-6,11-dihydro-5H-pyrido[2,3-b][1,5]benzodiazepine]
- pIC50: 6.93

Structure (SMILES): COC(=O)C12CCC(C(=O)N3Cc4cccnc4Nc4ccccc43)(CC1)CC2 [Example 22, methyl 4-(5,11-dihydro-6H-pyrido[2,3-b][1,5]benzodiazepin-6-ylcarbonyl)bicyclo[2.2.2]octane-1-carboxylate]
- pIC50: 5.66

Structure (SMILES): O=C([C@H]1COc2ccccc2O1)N1Cc2cccnc2Nc2ccc(C3CCOCC3)cc21 [Example 105, (R)-(2,3-Dihydrobenzo[b][1,4]dioxin-2-yl)(8-(tetrahydro-2H-pyran-4-yl)-5,11-dihydro-6H-benzo[b]pyrido[2,3-e][1,4]diazepin-6-yl)methanone]
- pIC50: 7.44

Structure (SMILES): O=C1CC(c2ccc3c(c2)N(C(=O)C2CCc4ccccc4CC2)Cc2cccnc2N3)CN1 (stereo not shown) [Example 120, 4-[6-(6,7,8,9-Tetrahydro-5H-benzo[7]annulen-7-ylcarbonyl)-6,11-dihydro-5H-pyrido[2,3-b][1,5]benzodiazepin-8-yl]pyrrolidin-2-one]
- pIC50: 8.40

Structure (SMILES): CCO[C@@H]1CC[C@H]2[C@@H]1CC[C@H]2C(=O)N1Cc2cccnc2Nc2ccc(N3CCOCC3)cc21 (racemic) [Example 78, 6-{[(1R,3aS,4R,6aS)-4-ethoxyoctahydropentalen-1-yl]carbonyl}-8-morpholin-4-yl-6,11-dihydro-5H-pyrido[2,3-b][1,5]benzodiazepine]
- pIC50: 6.51

Structure (SMILES): O=C(C1CC12CCCCC2)N1Cc2cccnc2Nc2ccccc21 (stereo not shown) [Example 4, 6-(spiro[2.5]oct-1-ylcarbonyl)-6,11-dihydro-5H-pyrido[2,3-b][1,5]benzodiazepine]
- pIC50: 5.11

Structure (SMILES): CCO[C@@H]1CC[C@@H]2[C@H]1CC[C@@H]2C(=O)N1Cc2cccnc2Nc2ccc(N3C[C@@H]4C[C@H]3CO4)cc21 (single isomer, unassigned) [Example 84]
- pIC50: 7.25

Structure (SMILES): CC(C)N(C)C(=O)C12CCC(C(=O)N3Cc4cccnc4Nc4ccccc43)(CC1)CC2 [Example 94, 4-(5,11-dihydro-6H-pyrido[2,3-b][1,5]benzodiazepin-6-ylcarbonyl)-N-methyl-N-(1-methylethyl)bicyclo[2.2.2]octane-1-carboxamide]
- pIC50: 6.20

Structure (SMILES): O=C([C@H]1CC[C@@H]2OCCC[C@@H]2C1)N1Cc2cccnc2Nc2ccc(N3CCOCC3)cc21 (single isomer, unassigned) [Example 45]
- pIC50: 6.91

Structure (SMILES): O=C(C1CCc2ccccc2CC1)N1Cc2cccnc2Nc2ccc(-c3ccnc(N4CCC(O)C4)c3)cc21 (stereo not shown) [Example 106, 1-{4-[6-(6,7,8,9-tetrahydro-5H-benzo[7]annulen-7-ylcarbonyl)-6,11-dihydro-5H-pyrido[2,3-b][1,5]benzodiazepin-8-yl]pyridin-2-yl}pyrrolidin-3-ol]
- pIC50: 8.52

Structure (SMILES): O=C(C1C[C@H]2COC[C@@H](C1)N2CC(F)(F)F)N1Cc2cccnc2Nc2ccc(N3C[C@H]4CCC3CO4)cc21 (single isomer, unassigned) [Example 129]
- pIC50: 8.22

Structure (SMILES): O=C1OCCN1c1ccc2c(c1)N(C(=O)C1CCc3ccccc3CC1)Cc1cccnc1N2 [Example 124, 3-[6-(6,7,8,9-Tetrahydro-5H-benzo[7]annulen-7-ylcarbonyl)-6,11-dihydro-5H-pyrido[2,3-b][1,5]benzodiazepin-8-yl]-1,3-oxazolidin-2-one]
- pIC50: 8.40

Structure (SMILES): O=C(C1CCC2(CCO2)CC1)N1Cc2cccnc2Nc2ccc(N3CCOCC3)cc21 (stereo not shown) [Example 121, 8-Morpholin-4-yl-6-(1-oxaspiro[3.5]non-7-ylcarbonyl)-6,11-dihydro-5H-pyrido[2,3-b][1,5]benzodiazepine]
- pIC50: 4.44

Structure (SMILES): O=C([C@@H]1CC[C@@H]2OCCC[C@@H]2C1)N1Cc2cccnc2Nc2ccc(N3CCOCC3)cc21 (racemic) [Example 39, 8-morpholin-4-yl-6-[(4aR,6R,8aS)-octahydro-2H-chromen-6-ylcarbonyl]-6,11-dihydro-5H-pyrido[2,3-b][1,5]benzodiazepine]
- pIC50: 6.20

Structure (SMILES): CC(C)OC1CC2(C1)CC(C(=O)N1Cc3cccnc3Nc3ccc(N4CCOCC4)cc31)C2 (stereo not shown) [Example 88, 6-{[6-(1-methylethoxy)spiro[3.3]hept-2-yl]carbonyl}-8-morpholin-4-yl-6,11-dihydro-5H-pyrido[2,3-b][1,5]benzodiazepine]
- pIC50: 5.98

Structure (SMILES): O=C([C@H]1CC[C@H]2OCCC[C@H]2C1)N1Cc2cccnc2Nc2ccc(N3CCOCC3)cc21 [Example 52, 8-morpholin-4-yl-6-[(4aS,6S,8aR)-octahydro-2H-chromen-6-ylcarbonyl]-6,11-dihydro-5H-pyrido[2,3-b][1,5]benzodiazepine]
- pIC50: 6.59

Structure (SMILES): O=C(C1Cc2ccccc2C1)N1Cc2cccnc2Nc2ccccc21 [Example 11, 6-(2,3-dihydro-1H-inden-2-ylcarbonyl)-6,11-dihydro-5H-pyrido[2,3-b][1,5]benzodiazepine]
- pIC50: 6.81

Structure (SMILES): O=C(C1CC[C@H]2OCC[C@H]2C1)N1Cc2cccnc2Nc2ccc(N3CCOCC3)cc21 (stereo in doubt) [Example 35, 8-morpholin-4-yl-6-[(3aR,5S,7aR)-octahydro-1-benzofuran-5-ylcarbonyl]-6,11-dihydro-5H-pyrido[2,3-b][1,5]benzodiazepine]
- pIC50: 5.02

Structure (SMILES): O=C(C1CCc2ccccc2O1)N1Cc2cccnc2Nc2ccc(N3CCOCC3)cc21 (stereo not shown) [Example 41, 6-(3,4-dihydro-2H-chromen-2-ylcarbonyl)-8-morpholin-4-yl-6,11-dihydro-5H-pyrido[2,3-b][1,5]benzodiazepine]
- pIC50: 7.02

Structure (SMILES): O=C([C@@H]1CC[C@@H]2OCCC[C@H]2C1)N1Cc2cccnc2Nc2ccc(N3CCOCC3)cc21 [Example 49, 8-morpholin-4-yl-6-[(4aS,6R,8aS)-octahydro-2H-chromen-6-ylcarbonyl]-6,11-dihydro-5H-pyrido[2,3-b][1,5]benzodiazepine]
- pIC50: 5.61
